Measured values reported in paper PMC7540253, “Sensitive LC-MS/MS Method for the Quantification of Macrocyclic Gαq Protein Inhibitors in Biological Samples” (Frontiers in Chemistry, 2020).

Details: CD-1 mice
[1] = single oral dose 0.2 mg FR, ~1.25 h, LC-MS/MS, three mice

For FR900359, the “Concentration of FR in stomach” value (single oral dose 0.2 mg FR by stomach tube, ~1.25 h after application, 3-step LLE, LC-MS/MS, organs from three mice (Figure 4)) was “highest concentrations”, the Peroral absorption (single oral dose 0.2 mg FR, judged from tissue levels ~1.25 h after application) was “low peroral absorption” and the “Concentration of FR in adipose tissue” value [1] was “Low levels”. The “Concentration of FR in brain” value [1] was “almost no FR was detectable”, the “Concentration of FR in eyes” value [1] was “highest concentrations” and the “Concentration of FR in heart” value [1] was “Low levels”. For the same substance, the “Concentration of FR in intestine” value [1] was “almost no FR was detectable”, the “Concentration of FR in liver” value [1] was “Low levels” and the “Concentration of FR in lung” value [1] was “Low levels”. The “Concentration of FR in blood plasma” value (single oral dose 0.2 mg FR, ~1.25 h, plasma diluted 1:10 in methanol, LC-MS/MS, three mice) was “almost no FR was detectable”.
